Legend:
[1] = test system: H3255 cells (EGFR L858R NSCLC); assay: Long-term colony formation / cell proliferation assay in H3255 cells; format: cell-based, human
Experimental: (§1) Single cell suspensions of the lung cancer cell lines were seeded into 6-well plates (2×10^4 cells/well) and cultured both in the absence and presence of the ALK inhibitors. At the endpoints of colony formation assays, cells were fixed with formaldehyde, stained with crystal violet (0.1% w/v) and photographed. All relevant assays were performed independently at least three times. All knockdown and overexpression experiments were done by retroviral or lentiviral infections.
(§2) Cells were seeded into 6-well plates (2-5×10^4 cells/well) and cultured both in the absence and presence of drugs as indicated. […] All knockdown and overexpression experiments were done by retroviral or lentiviral infection. All relevant assays were performed independently at least three times.

[2] = test system: H3255 cells (EGFR L858R NSCLC); conditions: parental cells, low nanomolar concentrations; cited from earlier work
[3] = test system: PC9 cells (EGFR delE746-A750 NSCLC); conditions: parental cells, low nanomolar concentrations; cited from earlier work
[4] = test system: PC9 cells (EGFR delE746-A750 NSCLC); assay: Long-term colony formation / cell proliferation assay in PC9 cells; format: cell-based, human
Experimental: as §1, §2

## COc1cc2ncnc(Nc3ccc(F)c(Cl)c3)c2cc1OCCCN1CCOCC1 [gefitinib]
[1]; pRS and shGFP control cells
  drug response of control H3255 cells: effectively eradicated
[1]; shMED12
  drug response of MED12 knockdown H3255 cells: insensitive
[2]
  sensitivity of H3255 cells: exquisitely sensitive
[3]
  sensitivity of PC9 cells: exquisitely sensitive
[4]; shARID1A #1 and #2
  drug response of ARID1A knockdown PC9 cells: conferred resistance
[4]; shDAB2IP#1 and #3, 50 nM
  drug response of DAB2IP knockdown PC9 cells: conferred resistance
[4]; shMED12
  drug response of MED12 knockdown PC9 cells: insensitive
[4]; shMED12 plus pMX-Med12, 50 nM gefitinib
  drug response of MED12 knockdown PC9 cells reconstituted with mouse Med12 cDNA: restored their sensitivity
[4]; shNF1#2 and #5, 50 nM
  drug response of NF1 knockdown PC9 cells: conferred resistance
[4]; shSMARCE1#1 and #2
  drug response of SMARCE1 knockdown PC9 cells: conferred resistance
[4]; shSMARCE1 plus SMARCE1-ND
  drug response of SMARCE1 knockdown PC9 cells reconstituted with SMARCE1-ND: restored the sensitivity

— patent US20140296248A1, “METHODS AND COMPOSITIONS FOR PREDICTING RESISTANCE TO ANTICANCER TREATMENT” (Stichting het Nederlands Kanker Instiuut-Antoni van …, priority 2011, published 2014)
